{"source": "paper PMC4829425", "binders": {"B1": {"name": "full-length VEGFR-2 with YFP or mCherry attached to the C-terminus via a GGS linker (receptor)", "chain": "ASVGLPSVSLDLPRLSIQKDILTIKANTTLQITCRGQRDLDWLWPNNQSGSEQRVEVTECSDGLFCKTLTIPKVIGNDTGAYKCFYRETDLASVIYVYVQDYRSPFIASVSDQHGVVYITENKNKTVVIPCLGSISNLNVSLCARYPEKRFVPDGNRISWDSKKGFTIPSYMISYAGMVFCEAKINDESYQSIMYIVVVVGYRIYDVVLSPSHGIELSVGEKLVLNCTARTELNVGIDFNWEYPSSKHQHKKLVNRDLKTQSGSEMKKFLSTLTIDGVTRSDQGLYTCAASSGLMTKKNSTFVRVHEKPFVAFGSGMESLVEATVGERVRIPAKYLGYPPPEIKWYKNGIPLESNHTIKAGHVLTIMEVSERDTGNYTVILTNPISKEKQSHVVSLVVYVPPQIGEKSLISPVDSYQYGTTQTLTCTVYAIPPPHHIHWYWQLEEECANEPSQAVSVTNPYPCEEWRSVEDFQGGNKIEVNKNQFALIEGKNKTVSTLVIQAANVSALYKCEAVNKVGRGERVISFHVTRGPEITLQPDMQPTEQESVSLWCTADRSTFENLTWYKLGPQPLPIHVGELPTPVCKNLDTLWKLNATMFSNSTNDILIMELKNASLQDQGDYVCLAQDRKTKKRHCVVRQLTVLERVAPTITGNLENQTTSIGESIEVSCTASGNPPPQIMWFKDNETLVEDSGIVLKDGNRNLTIRRVRKEDEGLYTCQACSVLGCAKVEAFFIIEGAQEKTNLEIIILVGTAVIAMFFWLLLVII[about 550 residues not listed]"}}, "target": "full-length VEGFR-2 with YFP or mCherry attached to the C-terminus via a GGS linker (human), P35968", "test": "FRET or BRET; QI-FRET between YFP- and mCherry-tagged copies in single plasma membrane-derived vesicles of co-transfected CHO cells, no ligand; monomer-dimer equilibrium model, dimer to monomers; two-dimensional concentrations (receptors per square micron)", "conditions": "remark: other sources report otherwise", "data": [{"binder": "B1", "values": [{"measurement": "percent dimer at 10 to 100 receptors per square micron", "value": "30 to 60", "unit": "%"}]}]}
